Measurements: patent US12570666B2, “Furoindazole derivatives” (Bayer Aktiengesellschaft, priority 2019, dated 2026)

Sequences of proteins named here, by UniProt entry; tags and fusion partners are left off.
UniProt Q9NQS5, whole entry: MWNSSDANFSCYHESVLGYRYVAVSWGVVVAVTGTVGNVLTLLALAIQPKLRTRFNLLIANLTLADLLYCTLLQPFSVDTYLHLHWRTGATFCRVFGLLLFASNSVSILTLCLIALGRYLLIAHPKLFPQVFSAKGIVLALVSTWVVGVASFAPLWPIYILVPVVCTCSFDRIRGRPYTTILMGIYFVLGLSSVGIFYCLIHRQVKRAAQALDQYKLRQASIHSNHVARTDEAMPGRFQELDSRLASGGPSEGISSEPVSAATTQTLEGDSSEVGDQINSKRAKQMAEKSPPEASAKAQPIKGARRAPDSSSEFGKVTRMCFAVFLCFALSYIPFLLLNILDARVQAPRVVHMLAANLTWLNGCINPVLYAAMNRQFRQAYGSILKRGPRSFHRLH

The compounds below were run against human GPR84 receptor (Homo sapiens, UniProt Q9NQS5) (assay: cAMP HTRF assay for identification of cellular GPR84 antagonists). Details: read-out: GPR84 IC50; CHO-K1 cells stably expressing human GPR84; Forskolin + agonist 6-OAU (EC80); average or median values.
Text: cAMP HTRF® Assay for Identification of Cellular GPR84 Antagonists
By using a Homogenous Time-Resolved Fluorescence (HTRF®) based assay (#62AM5PEJ, Cisbio, Condolet, France) the inhibition of the Gi-coupled GPR84 receptor can be detected. CHO-K1 cells stably expressing human GPR84 receptor (purchased from DiscoveRx, now Eurofins) were used and treated with Forskolin (F6886, Sigma, Germany) to stimulate membrane adenylyl cyclases and thereby unspecific cAMP formation. Activation of the Gi-coupled GPR84 by a natural or small molecule agonist (e.g. 6-n-octyl aminouracile, inhouse) results in inhibition of cellular cAMP formation which can be released again by antagonists to this receptor. Detection and quantification of cellular cAMP levels in this HTRF assay is achieved by interaction between a fluorescent cAMP tracer (cAMP-d2) and an Eu-cryptate labelled anti-cAMP antibody. Following excitation at 337 nm this pairing allows for the generation of a fluorescence resonance energy transfer (FRET) between the partners and results in FRET induced emissions at 665 nm and 620 nm, the latter representing background signal by Eu-cryptate labelled anti-cAMP antibody. Maximal signal is obtained in the absence of any cellular cAMP (no competition for the binding of the tracer to the antibody). Given the combination of the Gi coupling properties of GPR84 and the competitive nature of the detection system agonist treatment should result in an increase in the HTRF signal due to lowered cAMP levels. Any signal decrease in the presence of Forskolin, agonist and compound is indicative of antagonist mediated abrogation of GPR84 signalling.
For the assay, frozen aliquots of CHO-K1 cells expressing hGPR84 (prepared by acCELLerate, Hamburg, Germany) were thawed and a cell suspension (1.67E+06 cells/mL) in assay media (Ham's F12 Nutrient Mix, Thermo Fisher Scientific, Waltham, USA; 5% fetal calf serum, Biomol, Hamburg, Germany) containing cAMP-d2 (dilution 1:20, supplied with the kit #62AM5PEJ, Cisbio, Condolet, France) was prepared. After recovery of cells for 20 minutes at 37° C., 3 μL/well cell suspension including cAMP-d2 were added to a pre-dispensed assay plate (Greiner Bio-One, Kremsmuenster, Austria) containing 50 nl/well test compound in 100% DMSO or 100% DMSO as control. This was followed by a 30 minutes incubation step at room temperature. The stimulation time was started by addition of 2 μL/well assay media containing 2.5×EC80 agonist 6-OAU and 2.5×EC90 Forskolin (negative control: 2.5×EC90 Forskolin in assay media) and was continued for 30 minutes at room temperature. The reaction was stopped by addition of 3 μL/well lysis buffer containing cAMP Eu-Cryptate antibody (dilution 1:20) (both supplied with the kit #62AM5PEJ, Cisbio, Condolet, France). To enable complete lysis, plates were incubated for 60 minutes at room temperature before measurement in an HTRF reader, e.g. a PHERAstar (BMG Labtech, Ortenberg, Germany).
From the fluorescence emissions at 665 nm (FRET) and at 620 nm (background signal of Eu-cryptate) the ratio (emission at 665 nm divided by emission at 620 nm×10000) was calculated and the data were normalized (reaction without test compound, only 100% DMSO=0% inhibition; all other assay components except agonist=100% inhibition). […]

Row | IC50 | SMILES
1 | 72 nM | Cc1ccc(CNC(=O)c2oc3c(c2C)-c2nn(CC4COc5ncccc5O4)cc2CC3)cc1 (single isomer, unassigned) [53-2]
2 | 9 nM | Cc1c(C(=O)NC[C@@H]2CCCO2)oc2c1-c1nn(Cc3cccnc3)cc1C1(CC1)C2
3 | 213 nM | Cc1c(C(=O)NC[C@@H]2CCCO2)oc2c1-c1nn(Cc3cncc(F)c3)cc1CC2
4 | 12 nM | Cc1c(C(=O)NC[C@@H]2COCCO2)oc2c1-c1nn(Cc3cccnc3)cc1C1(CC1)C2
5 | 22 nM | Cc1ccc(CNC(=O)c2oc3c(c2C)-c2nn(CC4COc5ncccc5O4)cc2CC3)cc1 (single isomer, unassigned) [53-1]
